Assay results from ChEMBL document CHEMBL5131515, “Identification of Pyridinyltriazine Derivatives as Potent panFGFR Inhibitors against Gatekeeper Mutants for Overcoming Drug Resistance” (J Med Chem, 2022).

By UniProt entry, the sequences of proteins in these tests, tags left out.
Fibroblast growth factor receptor 2 (Homo sapiens), P21802, UniProt P21802, whole entry V564F: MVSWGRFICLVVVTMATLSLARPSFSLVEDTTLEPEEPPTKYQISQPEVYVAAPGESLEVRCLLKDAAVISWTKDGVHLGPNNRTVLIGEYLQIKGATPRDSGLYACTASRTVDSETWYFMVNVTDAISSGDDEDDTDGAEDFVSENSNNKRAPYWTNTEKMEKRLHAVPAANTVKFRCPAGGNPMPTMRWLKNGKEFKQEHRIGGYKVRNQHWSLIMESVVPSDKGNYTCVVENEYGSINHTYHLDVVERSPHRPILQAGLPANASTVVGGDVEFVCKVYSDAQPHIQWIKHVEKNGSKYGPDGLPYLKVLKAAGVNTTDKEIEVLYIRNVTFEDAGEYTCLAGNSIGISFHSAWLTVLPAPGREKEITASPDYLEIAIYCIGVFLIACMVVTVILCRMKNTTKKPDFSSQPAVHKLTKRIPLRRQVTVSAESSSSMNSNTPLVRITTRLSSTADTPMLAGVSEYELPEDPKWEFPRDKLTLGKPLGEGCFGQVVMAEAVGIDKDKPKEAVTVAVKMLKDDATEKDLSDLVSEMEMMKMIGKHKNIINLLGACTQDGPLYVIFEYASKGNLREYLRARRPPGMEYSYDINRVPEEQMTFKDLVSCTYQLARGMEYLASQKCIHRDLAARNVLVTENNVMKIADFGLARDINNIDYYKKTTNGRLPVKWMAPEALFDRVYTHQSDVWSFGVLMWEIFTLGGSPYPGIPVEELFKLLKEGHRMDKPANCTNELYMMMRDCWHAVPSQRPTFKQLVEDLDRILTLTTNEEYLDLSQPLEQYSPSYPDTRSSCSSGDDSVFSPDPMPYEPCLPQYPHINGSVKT

Columns and labels:
[1] = test system: Fibroblast growth factor receptor 2 (Homo sapiens), P21802 [V564F]; assay: Inhibition of FGFR2 V564F mutant (unknown origin) at 10 uM by radiometric kinase activity assay relative to control
[2] = Stability in dog liver microsomes assessed as parent compound remaining at 1 uM incubated for 30 mins; format: ADME, Canis lupus familiaris, Microsome; conditions: read-out: Stability
[3] = Stability in rat liver microsomes assessed as parent compound remaining at 1 uM incubated for 30 mins; format: ADME, Microsome; conditions: read-out: Stability

Compound | inhibition [1] [%] | remaining at 0.5 h, 1 µM [2] [%] | remaining at 0.5 h, 1 µM [3] [%]
CCN1CCN(c2ccc(Nc3cc(-c4cccnc4Nc4c(Cl)c(OC)cc(OC)c4Cl)ncn3)cc2)CC1 | < 50 |  | 
COc1cc(OC)c(Cl)c(Nc2ncccc2-c2ncnc(Nc3cnn(C4CCN(C(C)C)CC4)c3)n2)c1Cl |  | 8.3 | 7.7
